Reference: patent US20120258873A1, “REDUCTION OF 2,3-DIHYDROXY-2-METHYL BUTYRATE (DHMB) IN BUTANOL PRODUCTION” (priority 2011, published 2012)

Amino acid sequences for entries named in this document (tags omitted).
UniProt Q02138, whole entry A270E/T303I/K323Q: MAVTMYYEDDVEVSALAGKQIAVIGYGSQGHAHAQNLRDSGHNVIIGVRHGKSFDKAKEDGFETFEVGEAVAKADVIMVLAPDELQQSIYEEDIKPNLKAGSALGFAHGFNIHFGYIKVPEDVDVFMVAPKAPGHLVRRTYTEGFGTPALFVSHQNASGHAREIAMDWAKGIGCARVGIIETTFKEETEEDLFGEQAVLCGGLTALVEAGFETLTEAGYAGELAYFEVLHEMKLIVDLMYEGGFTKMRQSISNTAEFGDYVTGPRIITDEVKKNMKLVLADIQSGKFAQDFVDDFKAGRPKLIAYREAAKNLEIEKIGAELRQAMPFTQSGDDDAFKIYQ

Target: KARI from Lactococcus lactis (Lactococcus lactis subsp. lactis, UniProt Q02138, A270E/K323Q/T303I)
Assay: biochemical

C[C@@H](O)[C@](C)(O)C(=O)O [Slow DHMB, 2,3-dihydroxy-2-methyl butyrate]
Ki: 2300 µM

C[C@H](O)[C@](C)(O)C(=O)O [Fast DHMB, 2,3-dihydroxy-2-methyl butyrate]
Ki: 2800 µM
